Laboratory results taken from patent US20240400663A1 (Regeneron, published 2024).

How the values were obtained:
Test in all cases: cell-based or functional assay
[1] = molecular target: PfRH5 of Plasmodium falciparum strain Dd2 (on live parasites) (Plasmodium falciparum)
[2] = molecular target: PfRH5 of Plasmodium falciparum strain D10 (on live parasites) (Plasmodium falciparum)
[3] = molecular target: PfRH5 of Plasmodium falciparum strain 7G8 (on live parasites) (Plasmodium falciparum)

B1: H1H29149P2 (antibody, V domains shown)
VH: QVQLQESGPGLVKPSQTLSLTCTVSGGSISSGGYYWNWIRQHPGKGLEWIGYIYYSGSTYYNPSLKSRVTISVDTSKNQFSLKLGSVTAADTAVYYCARAPPYNWFDYWGQGTLVTVSS
VL: not shown
- Max growth inhibition (%) Dd2 [1]: 50.3%

B2: H1H29163P2 (antibody, V domains shown)
VH: QVQLVQSGAEVKKPGASVKVSCKTSGYTFTAYYIHWVRQAPGQGLEWMGWINPNNGDTNYALRFQGRVTMTRDMSINTAYMELRGLRSDDTAVYYCARDDLAAAGIGWFDSWGQGTLVTVSS
VL: not shown
- Max growth inhibition (%) D10 [2]: 71.8%

B3: H1H29187P2 (antibody, V domains shown)
VH: QVQLVESGGGVVQPGRFLRLSCAASGFTFSNSGMHWVRQAPGKGLEWVAGIWHDGSYKYYVDSVKGRFTISRDNSKNTLFLQMNSLRAEDTAVYYCARDDYYASGTSVDVWGQGTTVTVSS
VL: not shown
- Max growth inhibition (%) 7G8 [3]: 71.8%
